Measurements taken from patent US9006205B2, “Antisense oligonucleotides against neutral sphingomyelinase and neutral sphingomyelinase inhibitor GW4869 for degenerative neurological disorders” (Rush University Medical Center, priority 2011, dated 2015).

Test system: primary human neurons
Test: MTT metabolism of neurons in astrocyte-neuron trans-well
Type: cell-based
Conditions: neurons pretreated with different concentrations of chemical inhibitor
Method: Primary human astrocytes were grown to confluency on inserts. After 24 h of stimulation by the combination of Aβ (1 μM) and IL-Iβ (10 ng/ml), inserts were washed thrice with HBSS and then placed onto the wells containing primary human neurons. Therefore, in this trans-well model, although neurons and astrocytes face each other, they are separable and the effect of soluble factors released from activated astrocytes on neurons can be studied allowing analysis of neuronal and glial populations separately.
Mitochondrial activity was measured with the 3-(4,5-dimethylthiazol-2-yl)-2,5-diphenyltetrazolium bromide (MTT) assay (Sigma). The cells were grown on 24-well culture plates with 500 μl of medium and treated with various reagents according to the experimental design. […]
Primary human neurons were incubated with antisense (ASO) and scrambled oligonucleotides (ScO) against N-SMase (A) and A-SMase (FIG. 2B). After 48 h, neurons were analyzed for protein expression of N-SMase and A-SMase. […] After 6 h of treatment with activated astrocytes, apoptotic events in neurons were detected by TUNEL. In FIG. 2D, TUNEL-positive cells were counted manually in four different images of each of three coverslips by three individuals blinded to the experiment. […] Values obtained from the control group served as 100%, and data obtained in other groups were calculated as percent of control accordingly. […]

SMILES: CN(C)CCCN1c2ccccc2CCc2ccccc21 [imipramine]
- protection from activated astroglia-induced cell death (MTT metabolism): but not imipramine
